# Values of other authors as cited in article PMC7526454 (JCI Insight, 2020).
# Conditions: native ligand, during meal induced incretin secretion; cited from earlier work
compound,measurement,value
"CC[C@H](C)[C@H](NC(=O)[C@H](CO)NC(=O)[C@H](Cc1ccc(O)cc1)NC(=O)[C@H](CC(=O)O)NC(=O)[C@H](CO)NC(=O)[C@@H](NC(=O)[C@H](Cc1ccccc1)NC(=O)[C@@H](NC(=O)CNC(=O)[C@H](CCC(=O)O)NC(=O)[C@H](C)NC(=O)[C@@H](N)Cc1ccc(O)cc1)[C@@H](C)O)[C@@H](C)CC)C(=O)N[C@@H](C)C(=O)N[C@@H](CCSC)C(=O)N[C@@H](CC(=O)O)C(=O)N[C@@H](CCCCN)C(=O)N[C@H](C(=O)N[C@@H](Cc1c[nH]cn1)C(=O)N[C@@H](CCC(N)=O)C(=O)N[C@@H](CCC(N)=O)C(=O)N[C@@H](CC(=O)O)C(=O)N[C@@H](Cc1ccccc1)C(=O)N[C@H](C(=O)N[C@@H](CC(N)=O)C(=O)N[C@@H](Cc1c[nH]c2ccccc12)C(=O)N[C@@H](CC(C)C)C(=O)N[C@@H](CC(C)C)C(=O)N[C@@H](C)C(=O)N[C@@H](CCC(N)=O)C(=O)N[C@@H](CCCCN)C(=O)NCC(=O)N[C@@H](CCCCN)C(=O)N[C@@H](CCCCN)C(=O)N[C@@H](CC(N)=O)C(=O)N[C@@H](CC(=O)O)C(=O)N[C@@H](Cc1c[nH]c2ccccc12)C(=O)N[C@@H](CCCCN)C(=O)N[C@@H](Cc1c[nH]cn1)C(=O)N[C@@H](CC(N)=O)C(=O)N[C@H](C(=O)N[C@H](C(=O)N[C@@H](CCC(N)=O)C(N)=O)[C@@H](C)O)[C@@H](C)CC)C(C)C)[C@@H](C)CC [GIP(1-42), GIP(1-42)NH2]",Css (free): range of Cmax values,50-250^E pM
